Experimental data published in PubChem BioAssay AID1906 (The Scripps Research Institute Molecular Screening Center, 2009).
Only a part is listed here, and it is no random draw. Active and inactive are the calls of the source.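 Rule for the calls: active = inhibition above the mean of all tested compounds plus 3 SD, set per screening campaign (cut at about 17% in these data); inactive = the rest.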

The molecules below were run on cathepsin L1 (Fasciola hepatica) (assay: CTSL1 protease inhibition, fluke enzyme – biochemical, QFRET, fluorogenic peptide substrate, counter-screen for PFM18AAP inhibitor project, primary screen (AID 1906;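 note: 0% = plate median of test compound wells and 100% = 1 µM Z-Phe-Ala-diazomethylketone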)). Conditions: recombinant F. hepatica cathepsin L1, Z-Leu-Arg-MCA fluorescence; at 5.96 µM; stronger effect = higher value.

Structure (SMILES) | inhibition
N#CCCN(C(=O)COC(=O)C(O)(c1ccccc1)c1ccccc1)c1ccc(F)cc1 | inactive: 2.9%
CN(C(=O)Cc1ccccc1)[C@@H]1CC[C@]2(CCCO2)C[C@H]1N1CCCC1 | inactive: -4.91%
CCOP1(=S)c2c(C)nn(CCC#N)c2N=C(c2ccc(F)cc2)N1C (configuration not stated) | inactive: -2.14%
CS(=O)(=O)c1cc([N+](=O)[O-])c2no[n+]([O-])c2c1 | inactive: -1.31%
CCOP1(=S)c2c(C)nn(CCC#N)c2N=C(c2ccccc2F)N1C (configuration not stated) | inactive: -1.66%
O=P(Nc1nccs1)(c1ccccc1)c1nc2ccccc2s1 (configuration not stated) | inactive: 0.98%
O=P(Nc1nccs1)(Oc1ccccc1)Oc1ccccc1 | inactive: -2.89%
O=C(O)COc1ccc([As](=O)(O)O)cc1[N+](=O)[O-] | inactive: -0.55%
Nc1ccccc1[As](=O)(O)c1ccccc1 | inactive: 0.56%
CCCOP(=S)(Nc1nc(N)cc(=O)[nH]1)OCCC | inactive: -3.43%
Cc1ccc(NCCc2c([N+](=O)[O-])cc([N+](=O)[O-])cc2[N+](=O)[O-])cc1 | inactive: 6.92%
Nc1cccc2c([As](=O)(O)O)cccc12 | active: 61.8%
COc1cc(C2NCCC3(OCCO3)C2(C)C)cc(OC)c1OC (configuration not stated) | inactive: -2.46%
CCOP(=O)(Nc1cccc2ccccc12)OCC | inactive: -2.96%
COc1cc(C(=O)NCC2(N3CCOCC3)CCCCC2)cc(Cl)c1OC(C)C | inactive: 1.78%
O=[As](O)(O)c1cccnc1 | inactive: 7.06%
CS(=O)(=O)c1ccc(Cl)c(NC(=O)COC(=O)C(O)(c2ccccc2)c2ccccc2)c1 | inactive: -63.4%
O=C(OC1CN2CCC1CC2)c1ccc(Cl)cc1 (configuration not stated) | inactive: 0.59%
O=[As](O)(c1cccc(O)c1)c1cccc(O)c1 | inactive: -2.23%
Cc1cccc(OCC(=O)OC2CN3CCC2CC3)c1 (configuration not stated) | inactive: -2.58%
COc1ccccc1CNC(=O)COC(=O)C(O)(c1ccccc1)c1ccccc1 | inactive: -4.96%

Structure (SMILES) | inhibition
O=[As](O)(c1ccccc1Br)c1ccccc1Br | inactive: 0.67%
CC1(CBr)Cn2c(nc3ccccc3c2=O)S1 (configuration not stated) | inactive: -0.48%
CN(C(=O)Cc1ccc(Cl)c(Cl)c1)[C@@H]1CCCC[C@H]1N1CCCC1 | inactive: 1.82%
CC(C)/C=N\N=C(\N)N[N+](=O)[O-] | inactive: 1.61%
CN(CCCl)Cc1cc(Cl)c(NC2=NCCN2)c(Cl)c1 | inactive: -3.9%
CCOP(=O)(Nc1ccc(C)cn1)OCC | inactive: -1.61%
CCC1=CC2Cc3nc4ccc(Cl)cc4c(N)c3C(C1)C2 (configuration not stated) | inactive: 0.99%
O=P1(Nc2ccccn2)COc2ccccc2OC1 | inactive: -3.67%
CCOP(=O)(NC(=NC(C)c1ccccc1)NC(C)c1ccccc1)OCC (configuration not stated) | inactive: -1.77%
Clc1n[nH]nc1-c1nn[nH][15n]1 | inactive: 7.06%
CC(C)(C)C(=O)NC(Sc1ncccn1)C(Cl)(Cl)Cl (configuration not stated) | inactive: -0.1%
O=P1(Nc2ncccn2)COc2ccccc2OC1 | inactive: -2.83%
O=P1(Nc2ccc(Br)cn2)COc2ccccc2OC1 | inactive: -5.8%
Cc1ccc(OCC(=O)OC2CN3CCC2CC3)cc1 (configuration not stated) | inactive: 1.28%
O=[As](O)(c1cccs1)c1cccs1 | inactive: 2.08%
Nc1cccc([As](=O)(O)c2ccccc2)c1 | inactive: -1.05%
Cc1nn(-c2ccccc2)c2c1P(=O)(N1CCOCC1)N(C)C(c1ccccc1)=N2 (configuration not stated) | inactive: -0.74%
Cc1ccc(C(=O)OC2CN3CCC2CC3)cc1 (configuration not stated) | inactive: -4.89%
CC1CCC(C(C)C)C(OP(=O)(Nc2ccccn2)c2ccccc2)C1 (configuration not stated) | inactive: 2.2%
O=C(/C=C/c1ccccc1)OC1CN2CCC1CC2 (configuration not stated) | inactive: -4.17%
CN(C)C1(CNC(=O)c2ccc(S(C)(=O)=O)cc2)CCCCC1 | inactive: -2.17%
